Assays:
Format in all cases: cell-based
Conditions in all cases: filed as positive allosteric modulator
[1] = target: Glutamate receptor ionotropic, NMDA 2B (Homo sapiens) (UniProt Q13224); assay: Positive allosteric modulator activity at GluN2B NMDA receptor (unknown origin) expressed in CHO cells co-expressing GluN1a assessed as maximum potentiation at 30 uM in the presence of L-glutamate and glycine by Ca2+ influx assay
[2] = target: Glutamate receptor ionotropic, NMDA 2D (Homo sapiens) (UniProt O15399); assay: Positive allosteric modulator activity at GluN2D NMDA receptor (unknown origin) expressed in CHO cells co-expressing GluN1a assessed as maximum potentiation at 30 uM in the presence of L-glutamate and glycine by Ca2+ influx assay
[3] = target: Glutamate receptor ionotropic, NMDA 2C (Homo sapiens) (UniProt Q14957); assay: Positive allosteric modulator activity at GluN2C NMDA receptor (unknown origin) expressed in CHO cells co-expressing GluN1a assessed as maximum potentiation at 30 uM in the presence of L-glutamate and glycine by Ca2+ influx assay

The chains behind the UniProt entries cited, without tags or fusion partners. Where a name states a change or a piece, a line headed by the entry shows the natural chain unless it says otherwise.
UniProt Q13224, whole entry, looked up: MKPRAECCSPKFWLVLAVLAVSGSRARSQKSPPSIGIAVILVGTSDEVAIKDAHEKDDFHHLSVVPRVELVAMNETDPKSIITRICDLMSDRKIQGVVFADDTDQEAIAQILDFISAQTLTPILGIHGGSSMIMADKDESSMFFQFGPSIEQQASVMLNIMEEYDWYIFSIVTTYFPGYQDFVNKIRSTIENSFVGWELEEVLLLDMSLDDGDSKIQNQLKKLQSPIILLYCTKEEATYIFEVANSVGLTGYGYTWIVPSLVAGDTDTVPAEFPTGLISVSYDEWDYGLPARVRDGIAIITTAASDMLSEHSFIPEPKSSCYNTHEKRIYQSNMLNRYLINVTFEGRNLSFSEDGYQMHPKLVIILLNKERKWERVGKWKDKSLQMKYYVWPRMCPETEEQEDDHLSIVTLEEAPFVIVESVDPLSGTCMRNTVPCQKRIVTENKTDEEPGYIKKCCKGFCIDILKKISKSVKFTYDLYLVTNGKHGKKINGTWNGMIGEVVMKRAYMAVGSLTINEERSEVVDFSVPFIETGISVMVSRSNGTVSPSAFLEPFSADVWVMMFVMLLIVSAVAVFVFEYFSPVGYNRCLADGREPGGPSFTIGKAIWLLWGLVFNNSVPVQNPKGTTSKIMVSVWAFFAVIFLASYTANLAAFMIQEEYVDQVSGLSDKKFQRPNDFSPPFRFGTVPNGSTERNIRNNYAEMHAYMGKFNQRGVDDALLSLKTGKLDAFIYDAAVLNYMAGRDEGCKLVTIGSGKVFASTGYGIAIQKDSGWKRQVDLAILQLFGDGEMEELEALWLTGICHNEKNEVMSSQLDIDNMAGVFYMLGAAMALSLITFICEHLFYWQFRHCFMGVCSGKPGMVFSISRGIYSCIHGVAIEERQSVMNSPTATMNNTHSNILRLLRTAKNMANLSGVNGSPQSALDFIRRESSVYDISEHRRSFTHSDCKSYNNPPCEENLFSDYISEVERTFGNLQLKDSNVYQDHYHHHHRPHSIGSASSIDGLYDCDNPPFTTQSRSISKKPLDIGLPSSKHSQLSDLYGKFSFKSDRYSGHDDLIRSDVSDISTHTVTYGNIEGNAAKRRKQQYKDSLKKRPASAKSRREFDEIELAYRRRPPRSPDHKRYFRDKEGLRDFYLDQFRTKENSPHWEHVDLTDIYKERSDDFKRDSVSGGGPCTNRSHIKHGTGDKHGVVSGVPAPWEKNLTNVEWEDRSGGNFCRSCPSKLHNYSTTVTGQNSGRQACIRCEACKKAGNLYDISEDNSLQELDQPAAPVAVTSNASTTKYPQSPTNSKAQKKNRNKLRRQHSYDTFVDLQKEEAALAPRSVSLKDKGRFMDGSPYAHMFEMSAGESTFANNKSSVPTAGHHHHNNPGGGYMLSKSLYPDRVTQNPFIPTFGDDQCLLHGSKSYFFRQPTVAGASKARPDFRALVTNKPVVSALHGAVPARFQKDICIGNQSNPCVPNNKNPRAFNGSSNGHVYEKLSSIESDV
UniProt O15399, whole entry: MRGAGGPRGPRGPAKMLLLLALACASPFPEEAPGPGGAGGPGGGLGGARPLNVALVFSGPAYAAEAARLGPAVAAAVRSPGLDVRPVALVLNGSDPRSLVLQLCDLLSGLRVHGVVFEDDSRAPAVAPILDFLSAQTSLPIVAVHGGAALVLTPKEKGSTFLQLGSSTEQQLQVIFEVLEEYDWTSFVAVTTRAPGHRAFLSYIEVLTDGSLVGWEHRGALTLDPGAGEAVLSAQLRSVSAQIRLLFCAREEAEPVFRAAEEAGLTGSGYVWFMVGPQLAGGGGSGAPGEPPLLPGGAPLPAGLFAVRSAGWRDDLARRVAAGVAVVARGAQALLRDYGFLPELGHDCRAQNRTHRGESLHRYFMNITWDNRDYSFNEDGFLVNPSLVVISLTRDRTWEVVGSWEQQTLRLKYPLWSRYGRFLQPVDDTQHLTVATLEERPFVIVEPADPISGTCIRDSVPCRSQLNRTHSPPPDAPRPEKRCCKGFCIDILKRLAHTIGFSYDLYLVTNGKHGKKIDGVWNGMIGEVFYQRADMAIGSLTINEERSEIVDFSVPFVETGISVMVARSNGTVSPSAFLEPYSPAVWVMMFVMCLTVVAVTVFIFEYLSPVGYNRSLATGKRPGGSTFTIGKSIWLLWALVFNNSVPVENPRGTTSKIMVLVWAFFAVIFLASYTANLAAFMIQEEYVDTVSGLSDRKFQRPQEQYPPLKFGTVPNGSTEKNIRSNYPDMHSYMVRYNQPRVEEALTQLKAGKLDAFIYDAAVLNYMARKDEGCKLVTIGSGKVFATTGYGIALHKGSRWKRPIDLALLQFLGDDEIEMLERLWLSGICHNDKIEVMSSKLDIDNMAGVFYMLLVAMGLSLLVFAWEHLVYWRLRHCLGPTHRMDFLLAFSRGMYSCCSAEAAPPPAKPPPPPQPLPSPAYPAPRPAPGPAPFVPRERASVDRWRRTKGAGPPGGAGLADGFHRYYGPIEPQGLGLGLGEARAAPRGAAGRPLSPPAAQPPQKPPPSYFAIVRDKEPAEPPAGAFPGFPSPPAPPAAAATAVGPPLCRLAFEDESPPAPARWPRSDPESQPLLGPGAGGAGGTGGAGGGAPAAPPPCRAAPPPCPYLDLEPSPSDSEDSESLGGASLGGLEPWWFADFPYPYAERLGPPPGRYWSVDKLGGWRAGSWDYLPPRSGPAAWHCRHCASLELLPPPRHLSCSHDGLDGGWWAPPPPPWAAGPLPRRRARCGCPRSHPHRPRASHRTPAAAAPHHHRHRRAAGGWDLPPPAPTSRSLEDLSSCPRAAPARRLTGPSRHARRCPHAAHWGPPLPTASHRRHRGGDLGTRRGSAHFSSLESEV
UniProt Q14957: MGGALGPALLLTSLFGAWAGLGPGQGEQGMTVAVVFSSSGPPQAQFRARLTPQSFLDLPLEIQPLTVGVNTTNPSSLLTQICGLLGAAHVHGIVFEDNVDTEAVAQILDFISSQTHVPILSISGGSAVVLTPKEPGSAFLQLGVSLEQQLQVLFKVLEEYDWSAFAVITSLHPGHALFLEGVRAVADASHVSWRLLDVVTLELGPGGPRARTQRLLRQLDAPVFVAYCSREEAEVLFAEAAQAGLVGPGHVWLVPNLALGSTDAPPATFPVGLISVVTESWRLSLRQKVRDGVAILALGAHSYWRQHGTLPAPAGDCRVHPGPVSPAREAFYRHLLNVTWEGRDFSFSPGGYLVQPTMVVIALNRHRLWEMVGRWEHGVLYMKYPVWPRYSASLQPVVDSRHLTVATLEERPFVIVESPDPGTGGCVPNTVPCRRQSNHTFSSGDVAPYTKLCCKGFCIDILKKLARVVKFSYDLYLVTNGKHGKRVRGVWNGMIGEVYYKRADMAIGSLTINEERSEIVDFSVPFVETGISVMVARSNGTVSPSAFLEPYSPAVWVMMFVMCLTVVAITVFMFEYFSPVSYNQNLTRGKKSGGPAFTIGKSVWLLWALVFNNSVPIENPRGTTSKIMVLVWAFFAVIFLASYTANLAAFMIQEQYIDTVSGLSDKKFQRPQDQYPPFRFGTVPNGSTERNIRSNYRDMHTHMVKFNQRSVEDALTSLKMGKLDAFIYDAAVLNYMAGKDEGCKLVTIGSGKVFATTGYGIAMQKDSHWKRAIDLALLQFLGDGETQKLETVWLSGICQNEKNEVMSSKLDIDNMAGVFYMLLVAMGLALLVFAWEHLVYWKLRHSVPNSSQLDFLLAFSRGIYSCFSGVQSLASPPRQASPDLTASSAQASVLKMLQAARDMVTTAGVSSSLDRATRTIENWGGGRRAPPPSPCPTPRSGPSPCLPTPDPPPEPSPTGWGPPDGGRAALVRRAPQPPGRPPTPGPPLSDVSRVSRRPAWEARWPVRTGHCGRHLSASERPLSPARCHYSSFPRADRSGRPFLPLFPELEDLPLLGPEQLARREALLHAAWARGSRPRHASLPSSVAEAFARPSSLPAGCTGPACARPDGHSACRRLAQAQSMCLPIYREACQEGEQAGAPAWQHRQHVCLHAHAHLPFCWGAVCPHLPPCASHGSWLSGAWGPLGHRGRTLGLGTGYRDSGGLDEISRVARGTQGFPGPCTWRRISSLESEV

- Activity [1]: < 150%
- Activity [2]: 310%
- Activity [3]: 430%
Compound: Cc1cc(Cn2nc(Br)cc2Cl)cc(=O)n1C[C@H]1C[C@@H]1C#N

— ChEMBL document CHEMBL5241126, “Design and synthesis of 6-methylpyridin-2-one derivatives as novel and potent GluN2A positive allosteric modulators for the treatment of cognitive impairment” (Bioorg Med Chem, 2023)
